Laboratory results reported in patent publication US20020054880A1, “Anti-inflammatory, tolerogenic and immunoinhibiting properties of carbohydrate binding-peptides” (priority 1992, published 2002).

Chains of the proteins cited; added tags and fusions are not shown. Lines headed by an entry give the natural chain unless they say otherwise; changes in a name come on top.
UniProt P04978: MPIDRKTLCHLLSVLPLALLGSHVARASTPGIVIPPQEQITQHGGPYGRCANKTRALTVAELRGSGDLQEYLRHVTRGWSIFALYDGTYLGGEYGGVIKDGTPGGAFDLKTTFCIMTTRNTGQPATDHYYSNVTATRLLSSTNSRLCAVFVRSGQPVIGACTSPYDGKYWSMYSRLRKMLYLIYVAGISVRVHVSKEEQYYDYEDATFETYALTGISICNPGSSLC
UniProt P04979: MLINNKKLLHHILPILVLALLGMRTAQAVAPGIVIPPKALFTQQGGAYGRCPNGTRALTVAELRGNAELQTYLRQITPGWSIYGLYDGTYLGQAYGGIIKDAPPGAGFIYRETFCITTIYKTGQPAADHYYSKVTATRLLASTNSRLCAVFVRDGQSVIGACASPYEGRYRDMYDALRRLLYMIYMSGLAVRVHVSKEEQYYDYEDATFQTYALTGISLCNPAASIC

Molecular target: PT immobilized in microtiter wells (Bordetella pertussis, UniProt P04978+P04979)
Conditions: read-out: IC50 for inhibition of the binding of ACS2P1-biotin to PT; n=2; ACS2P1-biotin 10 μg/ml

Substance: fetuin [reference compound]
- IC50: 50 µM
